The experiment addresses Ataxia Telangiectasia Mutated (ATM) kinase (Homo sapiens, UniProt Q13315). The note with it: ATM inhibitor project.

Protein sequences, listed by entry. Tags and fused reporters are not part of them.
UniProt Q13315, whole entry, species assumed, stated change not applied: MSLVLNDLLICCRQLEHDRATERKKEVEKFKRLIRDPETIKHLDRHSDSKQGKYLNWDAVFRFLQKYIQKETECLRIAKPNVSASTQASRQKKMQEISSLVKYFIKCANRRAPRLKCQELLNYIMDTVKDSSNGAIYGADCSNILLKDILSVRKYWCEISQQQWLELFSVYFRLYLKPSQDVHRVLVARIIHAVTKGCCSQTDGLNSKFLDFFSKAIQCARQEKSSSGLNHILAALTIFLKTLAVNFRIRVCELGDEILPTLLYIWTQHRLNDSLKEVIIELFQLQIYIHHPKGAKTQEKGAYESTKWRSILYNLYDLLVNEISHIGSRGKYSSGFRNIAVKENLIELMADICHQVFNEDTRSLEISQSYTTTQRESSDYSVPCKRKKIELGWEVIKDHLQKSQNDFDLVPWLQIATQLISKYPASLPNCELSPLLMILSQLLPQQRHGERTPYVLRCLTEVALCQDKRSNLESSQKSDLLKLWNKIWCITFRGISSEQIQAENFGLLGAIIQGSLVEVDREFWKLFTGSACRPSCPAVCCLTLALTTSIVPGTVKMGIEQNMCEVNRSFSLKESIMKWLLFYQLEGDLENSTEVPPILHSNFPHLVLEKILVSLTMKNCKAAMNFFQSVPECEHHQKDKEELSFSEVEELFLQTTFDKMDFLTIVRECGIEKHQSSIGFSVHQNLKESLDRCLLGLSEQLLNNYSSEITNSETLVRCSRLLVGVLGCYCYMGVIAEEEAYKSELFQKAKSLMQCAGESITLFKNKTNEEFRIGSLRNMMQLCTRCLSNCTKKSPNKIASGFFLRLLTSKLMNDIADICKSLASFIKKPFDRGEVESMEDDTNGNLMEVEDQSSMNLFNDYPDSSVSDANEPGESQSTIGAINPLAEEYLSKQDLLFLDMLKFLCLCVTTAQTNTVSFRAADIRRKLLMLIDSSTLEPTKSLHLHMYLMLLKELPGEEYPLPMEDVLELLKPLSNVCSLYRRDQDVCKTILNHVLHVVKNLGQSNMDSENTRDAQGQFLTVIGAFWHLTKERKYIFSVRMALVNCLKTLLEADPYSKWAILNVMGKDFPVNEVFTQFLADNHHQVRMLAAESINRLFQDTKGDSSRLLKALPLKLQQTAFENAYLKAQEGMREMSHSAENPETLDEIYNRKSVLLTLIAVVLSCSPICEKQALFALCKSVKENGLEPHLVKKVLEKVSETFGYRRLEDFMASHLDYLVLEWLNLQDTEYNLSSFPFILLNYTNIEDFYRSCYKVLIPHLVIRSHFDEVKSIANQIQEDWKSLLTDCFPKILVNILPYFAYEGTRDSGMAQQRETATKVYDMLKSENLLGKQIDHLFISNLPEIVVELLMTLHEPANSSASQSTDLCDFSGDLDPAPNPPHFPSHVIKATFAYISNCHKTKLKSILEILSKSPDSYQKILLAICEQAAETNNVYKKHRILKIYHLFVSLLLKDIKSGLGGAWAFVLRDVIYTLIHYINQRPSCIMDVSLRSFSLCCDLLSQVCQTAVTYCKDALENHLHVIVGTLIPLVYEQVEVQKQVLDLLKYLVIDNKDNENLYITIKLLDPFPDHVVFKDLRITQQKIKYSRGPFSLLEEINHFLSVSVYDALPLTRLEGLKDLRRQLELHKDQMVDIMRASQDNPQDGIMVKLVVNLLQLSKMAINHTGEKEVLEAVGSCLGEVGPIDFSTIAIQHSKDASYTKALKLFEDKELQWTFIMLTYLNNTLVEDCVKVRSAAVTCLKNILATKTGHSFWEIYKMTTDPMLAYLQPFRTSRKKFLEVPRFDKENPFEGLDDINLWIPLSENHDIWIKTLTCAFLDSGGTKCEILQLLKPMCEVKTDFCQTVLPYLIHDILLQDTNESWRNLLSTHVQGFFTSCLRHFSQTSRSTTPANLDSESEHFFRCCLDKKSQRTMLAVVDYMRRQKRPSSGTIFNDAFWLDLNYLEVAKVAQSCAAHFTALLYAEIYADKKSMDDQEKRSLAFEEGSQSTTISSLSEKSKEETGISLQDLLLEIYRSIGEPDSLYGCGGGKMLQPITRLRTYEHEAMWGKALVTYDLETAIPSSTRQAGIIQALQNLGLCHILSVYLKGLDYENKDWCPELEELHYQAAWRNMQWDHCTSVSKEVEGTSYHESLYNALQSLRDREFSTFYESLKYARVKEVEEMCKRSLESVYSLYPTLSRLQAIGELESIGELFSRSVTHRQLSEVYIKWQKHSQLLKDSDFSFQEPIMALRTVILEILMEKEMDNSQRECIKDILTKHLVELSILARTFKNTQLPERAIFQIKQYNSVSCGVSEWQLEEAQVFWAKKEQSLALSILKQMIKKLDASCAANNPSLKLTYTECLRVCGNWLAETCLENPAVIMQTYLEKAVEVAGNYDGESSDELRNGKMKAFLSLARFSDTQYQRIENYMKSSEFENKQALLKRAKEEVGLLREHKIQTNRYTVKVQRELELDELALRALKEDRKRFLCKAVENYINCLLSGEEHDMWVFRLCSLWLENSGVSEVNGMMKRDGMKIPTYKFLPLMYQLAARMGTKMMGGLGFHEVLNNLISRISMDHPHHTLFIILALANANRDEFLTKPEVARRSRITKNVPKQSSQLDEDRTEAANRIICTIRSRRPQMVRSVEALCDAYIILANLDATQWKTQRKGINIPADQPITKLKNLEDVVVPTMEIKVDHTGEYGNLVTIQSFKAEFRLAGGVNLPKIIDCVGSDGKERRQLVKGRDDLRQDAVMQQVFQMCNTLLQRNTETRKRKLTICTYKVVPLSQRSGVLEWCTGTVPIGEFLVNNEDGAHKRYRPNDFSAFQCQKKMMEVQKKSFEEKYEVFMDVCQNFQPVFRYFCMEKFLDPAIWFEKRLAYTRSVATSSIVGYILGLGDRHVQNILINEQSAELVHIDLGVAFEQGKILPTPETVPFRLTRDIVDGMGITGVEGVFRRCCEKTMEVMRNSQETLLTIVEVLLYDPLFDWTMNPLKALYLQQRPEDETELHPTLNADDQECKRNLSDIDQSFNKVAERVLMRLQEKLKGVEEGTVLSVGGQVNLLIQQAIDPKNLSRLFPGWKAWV

For `CN(C)CCCOc1ccc(-c2ccc3ncc4c(c3c2)n(C2CCOCC2)c(=O)n4C)cn1` [published candidate drug, 8-{6-[3-(Dimethylamino)propoxy]pyridin-3-yl}-3-methyl-1-(tetrahydro-2 H-pyran-4-yl)-1,3-dihydro-2 H-imidazo[4,5-c]quinolin-2-one], the “potency on the target protein (in words)” value is “sub-nM potency”.

Source of the values: PMC7567642, “A Fully Integrated Assay Panel for Early Drug Metabolism and Pharmacokinetics Profiling” (Assay and Drug Development Technologies, 2020).
